Where two headings read alike, the source gives them in different places.
Target: T1, serotonin uptake sites ([^3 H]6-nitroquipazine binding, rat brain membranes) (Rattus norvegicus, UniProt P31652)
T1 construct: from tissue; host or cells: rat brain minus cerebellum, pons and medulla oblongata; washed membrane homogenate
Test: Inhibition of [^3 H]6-nitroquipazine binding by several drugs
Experimental: Rats were killed by decapitation and the brains (minus cerebellum, pons medulla and oblongata) were rapidly removed. The brain tissue was homogenized in 50 volumes of ice-cold buffer (50 mM Tris-HCl, 120 mM NaCl, 5 mM KCl, pH 7.4) with a Kinematica Polytron homogenizer at setting 5 for 30 seconds. The homogenate was centrifuged at 48,000×g for 10 minutes. The resulting pellet was resuspended in 50 volumes of ice-cold buffer and recentrifuged. The final pellet was resuspended in the same 50 volumes of buffer.
Aliquots of membrane suspension were incubated with [^3 H]6-nitroquipazine (30-1,200 pM) at 22° C. for 2 hours for the equilibrium saturation. After the addition of 4 ml of ice-cold buffer the homogenates were rapidly filtered through Whatman GF/C filters pretreated with 0.05% polyethleneimine. The filters were washed with ice-cold buffer (3×5 ml). The radioactivity trapped by the filters was determined by a liquid scintillation counter.
Ten different concentrations of the drugs were used for each determination. Aliquots of membrane suspension were incubated with [^3 H]6-nitroquipazine at 22° C. for 2 hours. The specific binding of [^3 H]6-nitroquipazine was determined as described in Example 2.
Drug IC50 values were defined by means of the iterative non-linear least-squares method.

By UniProt entry, the sequences of proteins in these tests, tags left out.
UniProt P31652, whole entry: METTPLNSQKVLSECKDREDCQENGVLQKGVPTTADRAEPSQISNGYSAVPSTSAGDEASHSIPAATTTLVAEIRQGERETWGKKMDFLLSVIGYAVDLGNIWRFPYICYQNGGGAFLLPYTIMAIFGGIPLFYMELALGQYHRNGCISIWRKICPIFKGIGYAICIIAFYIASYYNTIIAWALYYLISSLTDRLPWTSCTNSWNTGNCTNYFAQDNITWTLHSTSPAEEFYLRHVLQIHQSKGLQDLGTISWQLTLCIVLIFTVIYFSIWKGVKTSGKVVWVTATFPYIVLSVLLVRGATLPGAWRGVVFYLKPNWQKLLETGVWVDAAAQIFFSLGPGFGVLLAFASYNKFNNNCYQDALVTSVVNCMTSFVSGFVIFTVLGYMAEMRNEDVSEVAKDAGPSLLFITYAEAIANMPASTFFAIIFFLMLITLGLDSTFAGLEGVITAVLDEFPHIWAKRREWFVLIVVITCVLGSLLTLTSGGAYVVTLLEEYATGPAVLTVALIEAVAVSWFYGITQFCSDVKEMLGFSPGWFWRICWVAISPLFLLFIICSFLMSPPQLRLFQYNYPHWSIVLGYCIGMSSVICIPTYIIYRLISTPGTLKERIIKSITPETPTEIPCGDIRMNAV

Row | Structure (SMILES) | Ki (read-out: Ki) [nM] | Ki ([…] [^3 H]6-nitroquipazine, 22° C., 2 hours)
1 | CNCCC=C1c2ccccc2CCc2ccccc21 [Nortriptyline] | 89.5 | 
2 | Fc1ccc([C@@H]2CCNC[C@H]2COc2ccc3c(c2)OCO3)cc1 [Paroxetine] | 0.171 | low nanomolar ranges
